Experimental data taken from publication PMC9569839, “Methionine 274 Is Not the Determining Factor for Selective Inhibition of Histone Deacetylase 8 (HDAC8) by L-Shaped Inhibitors” (International Journal of Molecular Sciences, 2022).
Positions count from the first letter of the chain named.

Columns and labels:
HDAC8M274A [1] = molecular target: T1, HDAC8M274A (Homo sapiens, UniProt Q9BY41, M274A); experiment: biochemical; conditions: read-out: kon (rate constant of association)
T1 sequence (Q9BY41 1-377 M274A): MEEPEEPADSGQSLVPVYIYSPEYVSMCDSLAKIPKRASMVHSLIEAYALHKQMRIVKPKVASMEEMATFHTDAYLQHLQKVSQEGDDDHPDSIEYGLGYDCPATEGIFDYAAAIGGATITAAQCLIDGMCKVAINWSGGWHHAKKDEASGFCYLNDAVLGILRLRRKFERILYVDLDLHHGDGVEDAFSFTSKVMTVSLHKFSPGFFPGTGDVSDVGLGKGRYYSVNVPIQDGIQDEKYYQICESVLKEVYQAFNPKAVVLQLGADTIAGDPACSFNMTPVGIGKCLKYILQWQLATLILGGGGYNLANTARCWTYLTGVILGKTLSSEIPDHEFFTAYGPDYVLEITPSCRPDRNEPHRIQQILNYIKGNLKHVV

HDAC8wt = molecular target: T2, HDAC8wt (Homo sapiens, UniProt Q9BY41); experiment: biochemical; conditions: read-out: kon (rate constant of association)
T2 sequence (Q9BY41 1-377): T1 sequence (Q9BY41 1-377 M274A) with A274M

HDAC8M274A [2] = molecular target: T1, HDAC8M274A; experiment: Enzyme activity assay, IC50 determination with Boc-Lys(TFA)-AMC

Structure (SMILES) | kon (HDAC8M274A [1]) [M⁻¹ s⁻¹] | kon (HDAC8wt) [M⁻¹ s⁻¹] | IC50 (HDAC8M274A [2]) [µM]
O=C(NO)c1cccc(-c2cn(CSc3ccccc3)nn2)c1 [NCC-149] | 1.92e+06 ± 60000 | 3.9e+06 ± 300000 | 
O=C(CCCCCCC(=O)Nc1ccccc1)NO [SAHA, suberoylanilide hydroxamic acid] |  |  | 11
